Measurements as given in publication PMC9781916, “Antipsychotic- and Anxiolytic-like Properties of a Multimodal Compound JJGW08 in Rodents” (International Journal of Molecular Sciences, 2022).

Protein sequences, listed by entry. Tags and fused reporters are not part of them.
UniProt P34969, whole entry: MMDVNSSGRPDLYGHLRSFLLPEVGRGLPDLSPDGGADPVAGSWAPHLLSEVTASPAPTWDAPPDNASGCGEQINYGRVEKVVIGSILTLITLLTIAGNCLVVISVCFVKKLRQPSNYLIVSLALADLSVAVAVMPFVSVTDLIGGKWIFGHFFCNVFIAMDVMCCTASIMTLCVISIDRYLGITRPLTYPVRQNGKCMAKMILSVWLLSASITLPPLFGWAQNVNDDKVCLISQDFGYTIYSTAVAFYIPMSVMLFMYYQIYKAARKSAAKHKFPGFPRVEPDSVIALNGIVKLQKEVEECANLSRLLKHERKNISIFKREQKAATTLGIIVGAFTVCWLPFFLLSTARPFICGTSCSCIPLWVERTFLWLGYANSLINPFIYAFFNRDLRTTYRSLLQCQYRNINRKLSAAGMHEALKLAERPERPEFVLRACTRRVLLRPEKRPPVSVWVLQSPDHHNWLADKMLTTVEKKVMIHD

Molecular target: human serotonin 5-HT7 receptor (Homo sapiens, UniProt P34969)
Assay: Functional assay (cAMP, TR-FRET) in CHO-K1 cells, 5-HT7 receptor

Agonist Mode Emax% (5-HT7, agonist mode): 0%
Antagonist Mode Emax% (5-HT7, antagonist mode, 10 nM serotonin as reference agonist): 9%
SMILES: CC1CCN(CC[C@H]2CCCN2S(=O)(=O)c2cccc(O)c2)CC1 [SB-269970, reference compound]
